# Binding of CDR-mutated scFvs to a peptide of the spike HR2 region

Values reported by Li et al. 2023, doi:10.1038/s41467-023-39022-2 (FLAb copy).

All variants were tested on one target, the spike HR2 peptide PDVDLGDISGINAS (SARS-CoV-2).

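Phage display of a naive human antibody library on the peptide gave the parent. This is the validation round: designs drawn from the data on random variants, tested in the same kind of assay. Their group label is 14L_En_HC (En: ensemble of fine-tuned language models; HC: hill climbing; a sequence that several methods proposed may carry one label only). The scFvs were displayed on barcoded MATa yeast, the peptide on MATalpha yeast. Binding brings cells together so that they mate, and sequencing counts the barcode pairs among the diploids. The ratio of observed to expected reads was calibrated, replicate by replicate, on BCL2-family standards whose Kd was known from biolayer interferometry. Mating was done six times.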

Each scFv is VH, three GGGGS repeats, VL, as in the parent Ab-14, and differs from it in the CDRs of the light chain only.
VH: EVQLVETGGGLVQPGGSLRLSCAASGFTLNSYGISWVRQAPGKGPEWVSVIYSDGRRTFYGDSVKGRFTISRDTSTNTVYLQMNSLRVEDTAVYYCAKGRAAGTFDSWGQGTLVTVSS
VL: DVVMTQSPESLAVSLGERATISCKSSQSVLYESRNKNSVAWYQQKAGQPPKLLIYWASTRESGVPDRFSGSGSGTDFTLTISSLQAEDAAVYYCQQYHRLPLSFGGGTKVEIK

Each variant is given by its three light chain CDRs, as the data file delimits them; those of the parent are KSSQSVLYESRNKNSVA, WASTRES, QQYHRLPLS. Affinities are written as log10 Kd with Kd in nM; a lower number is a better binder. Replicates are averaged; those with no signal do not enter the mean. "nd" means that the variant was in the library but no mating with the target was seen in that replicate; the authors take this as a sign of poor binding, and no number exists. Empty control strains, which show no peptide, gave a signal in 4% of pairings with all light chain designs; the median was 2.64 and 95% of these signals were weaker than 1.59. No background was subtracted. Also given: how often the same scFv was detected with the empty control strains, with their mean in brackets. A sequence measured in both rounds can read differently, since the two assays cover different ranges. Of ten entries with the parent sequence, four were seen in most replicates (averages 0.34 to 2.37), three in one and three in none, so single entries are noisy. The authors averaged sequences with at least three values out of six and counted those with two or fewer as poor binders.

CDR-L1	CDR-L2	CDR-L3	log10 Kd (nM) by replicate	mean log10 Kd (nM)	empty controls
KLYQSMGYLSHMKNSIA	DMSRREN	QQYHRLPLS	0.36 / 0.46 / 0.23 / 0.09 / 0.13 / 0.43	0.28	3 of 18 (3.84)
KISMLQRYQQNAKNNIA	EMSRREE	QQYHRLPLS	-0.10 / 0.05 / -0.17 / -0.38 / -0.19 / 0.02	-0.13	1 of 18 (2.20)
KVGNMVDYMSATHSSVA	QTSTREE	QQYHRLPLS	nd / 0.74 / 2.08 / 1.76 / 0.74 / nd	1.33	0 of 18
KLRESTHVESKQKNNVA	DNSTRES	QDYHRLPLS	2.15 / nd / nd / 1.83 / 2.24 / 2.55	2.19	0 of 18
TISYSAMLTGLNRNSVA	QAEERLE	QQYNRLPLS	1.01 / 0.66 / 0.58 / 0.85 / 0.84 / 1.29	0.87	0 of 18
HIYQSVGMTSRNKNSVA	ENSTRED	QQYDRLPLS	nd / nd / nd / nd / nd / nd	nd	0 of 18
KIGQQVTYESTNKSAIA	QMTTREE	QQYHRLPLS	0.77 / 0.78 / 0.59 / 0.36 / 0.77 / 0.79	0.67	0 of 18
KLYQNVGTMSHNTQSIA	DMERRED	QQYHRLPLS	0.53 / 0.26 / 0.41 / 0.17 / 0.17 / 0.39	0.32	3 of 18 (3.37)
TISQSWIYESRNKNNVA	EMSTREN	QDYDRLPLS	0.24 / -0.27 / -0.32 / -0.36 / -0.36 / 0.01	-0.18	0 of 18
KFSQMVNIESTHVNAVA	QMSTREE	QQYHRLPLS	1.13 / 0.97 / 0.19 / 0.64 / 0.81 / 0.74	0.75	2 of 18 (2.10)
KLRQVTGYESYLKNSVA	QTSTRVS	QDYHRLPLS	0.72 / 1.43 / 1.33 / 1.27 / 1.07 / 1.33	1.19	3 of 18 (2.14)
KLGAATRFESSNQASIA	NNSTREE	QQYHRLPLS	1.07 / 1.00 / 0.93 / 0.87 / 0.88 / 1.10	0.97	2 of 18 (2.33)
TISTSALYESTNKNSVA	ELSVRGS	QQYERLPLS	0.43 / 0.76 / 0.30 / 0.79 / 0.11 / 0.59	0.50	0 of 18
KLGAATRFESGNKASIA	NNSTREE	QQYHRLPLS	0.51 / 0.78 / 0.64 / 0.89 / 1.01 / 0.71	0.76	1 of 18 (2.53)
KVSEISHFESKKKNSVA	ENSTREE	QQYDHLPLS	1.59 / 1.87 / 1.09 / 1.66 / 1.13 / 1.28	1.44	0 of 18
KLSMSVDYMSATHSSVA	QTTTREE	QQYHRLPLS	0.45 / 0.42 / 0.36 / 0.22 / 0.44 / 0.68	0.43	1 of 18 (2.39)
TLVQSVMGSSRTKNSVA	NAETREE	QHYHRLPLS	0.83 / 1.10 / 0.79 / 0.92 / 1.07 / 0.95	0.94	0 of 18
KISQNMGETWRNKNSVA	EVSTVPS	QQYWRLPLS	0.31 / 0.82 / 0.39 / 0.05 / 0.52 / 0.67	0.46	0 of 18
MISDLTMYGSRNVNSVA	DLSTRGS	QQYHRLPLS	0.28 / 0.11 / 0.24 / 0.20 / 0.09 / 0.14	0.18	1 of 18 (2.06)
HLSDTVMQGLYYRNSVA	QESTRAD	QQYHRLPLS	0.99 / 0.70 / 0.49 / 0.27 / 0.73 / 0.59	0.63	0 of 18
MISDTGLHDSRMKNSVA	NNSTREA	QQYHRLPLS	nd / 1.64 / 1.56 / 1.52 / 2.80 / 1.56	1.82	0 of 18
KLSQSVLFWGHAINSVA	EMETREN	QQYDRLPLS	0.30 / 0.51 / 0.10 / 0.51 / -0.01 / 0.83	0.37	0 of 18
KLYESMGYLSRNKNSIA	DMSRREN	QQYHRLPLS	-0.09 / -0.30 / -0.17 / -0.43 / -0.37 / -0.15	-0.25	4 of 18 (3.19)
KLIQSVAMVSRNKDSIA	DNSTRFY	QQYHRLPLS	2.30 / 2.91 / 2.48 / 3.04 / 1.93 / 2.86	2.59	1 of 18 (3.35)
SLYDAMLMESRNKNPIA	DVSTRPS	QQYHRLPLS	-0.19 / -0.05 / -0.33 / -0.27 / -0.47 / 0.12	-0.20	0 of 18
KITQMFTGESHNKNSIA	QMTTREG	QQYHRLPLS	1.09 / 1.33 / 1.16 / 1.21 / 0.67 / 2.00	1.24	0 of 18
TITQSMLMTSHQMNSVA	HASTRED	QQYHRLPLI	0.41 / 0.78 / 0.49 / 0.43 / 0.19 / 0.59	0.48	1 of 18 (2.49)
HLSDTVMQGSYYRNSVA	QESTRAE	QQYHRLPLS	0.16 / 0.07 / -0.02 / -0.12 / -0.19 / 0.17	0.01	1 of 18 (2.14)
ILSQMLLAAGNKHNSVA	QANYRES	QQYHRLPLS	nd / nd / 1.97 / nd / 3.86 / nd	2.92	0 of 18
KLRQMTLTEGYFKNSVA	QASTREE	QSYHRLPLS	0.73 / 0.78 / 0.61 / 0.60 / 0.71 / 0.77	0.70	0 of 18